Values quoted from earlier work as cited in patent publication US8236785B2, “Method of treating or preventing infertility in a female mammal and pharmaceutical kit for use in such method” (Pantarhei Bioscience B.V., priority 2007, dated 2012).

Settings: cited from earlier work

Substance | in vivo half-life (t1/2) | half-life (t1/2) (in vivo)
LH isolated from urine: luteinising hormone isolated from female urine | 0.167 to 0.333 h | –
recLH: LH obtained from a recombinant cell line | – | 12 to 13 h
